Data set [1] deals with the molecule itself. The data set can be described thus: native MS.
Data set [2] concerns the molecule itself. The data set can be described thus: cross-linking.

The values that follow come from publication PMC7924963 (Journal of the American Chemical Society, 2020).

B1: C99, the 99-residue C-terminal domain of the human amyloid precursor protein (APP) (domain or fragment)
chain: not shown
The term stoichiometry N denotes a count of units in the complex or per binding partner. Consider B1, for which the “stoichiometry N” value was 3 in data set [1] and 2 in data set [2].
